Measurements: patent EP4736885A1, “ANTIBODY-DRUG CONJUGATE AND USE THEREOF” (priority 2023, dated 2025)

Key:
[1] = DESTINY-Breast 03 clinical study; cited from earlier work
[2] = test system: human breast cancer SK-BR-3 cells; assay: In vitro growth inhibition (resazurin); assay type: cell-based; settings: SK-BR-3, 168±8 h
Description: The target cells were collected and resuspended to form a single-cell suspension, and the cell viability and cell count were determined by trypan blue staining. The cell density was adjusted to 1 × 10^5 cells/mL. The cell suspension was added to a 96-well black flat-bottom cell culture plate at 100 µL/well. […] The diluted test samples were added to the 96-well black flat-bottom cell culture plate (pre-seeded with cells) at 20 µL/well. The plate was incubated in a cell incubator (37 °C, 5% CO2) for 168±8 h. A resazurin sodium solution (0.03%) was added at 20 µL/well. The plate was then incubated at 37 °C for 3-4 h. Fluorescence values were measured using a microplate reader at 550 nm/610 nm. Plotting was performed using Prism or similar plotting software, and then the half-maximal inhibitory concentration IC50 values of the reference standard and the test samples were calculated by fitting.

[3] = test system: breast cancer with low HER2 expression; settings: cited from earlier work

Enhertu
confirmed objective response rate (ORR) [1]: 79.7% | IC50 [2]: 53.74 ng/mL | confirmed ORR [3]: 37.0%
